# Assay results published in PubChem BioAssay AID652083 (The Scripps Research Institute Molecular Screening Center, 2013).
# Sequences of proteins named here, by UniProt entry; tags and fusion partners are left off. A change or cut given only in a name is not applied to a line headed by its entry.
# UniProt P08908, whole entry, looked up: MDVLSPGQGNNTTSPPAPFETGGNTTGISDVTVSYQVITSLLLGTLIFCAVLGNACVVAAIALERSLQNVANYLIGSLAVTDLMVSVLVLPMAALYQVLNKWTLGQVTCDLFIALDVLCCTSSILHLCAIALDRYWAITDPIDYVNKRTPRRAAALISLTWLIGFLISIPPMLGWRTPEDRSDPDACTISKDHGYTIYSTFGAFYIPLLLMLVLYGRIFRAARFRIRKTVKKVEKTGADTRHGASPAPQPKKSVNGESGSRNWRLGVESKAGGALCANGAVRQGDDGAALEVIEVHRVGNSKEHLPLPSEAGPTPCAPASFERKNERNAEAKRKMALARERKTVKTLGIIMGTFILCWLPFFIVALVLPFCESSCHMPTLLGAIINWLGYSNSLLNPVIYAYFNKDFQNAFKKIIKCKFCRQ
# UniProt P41595, whole entry, looked up: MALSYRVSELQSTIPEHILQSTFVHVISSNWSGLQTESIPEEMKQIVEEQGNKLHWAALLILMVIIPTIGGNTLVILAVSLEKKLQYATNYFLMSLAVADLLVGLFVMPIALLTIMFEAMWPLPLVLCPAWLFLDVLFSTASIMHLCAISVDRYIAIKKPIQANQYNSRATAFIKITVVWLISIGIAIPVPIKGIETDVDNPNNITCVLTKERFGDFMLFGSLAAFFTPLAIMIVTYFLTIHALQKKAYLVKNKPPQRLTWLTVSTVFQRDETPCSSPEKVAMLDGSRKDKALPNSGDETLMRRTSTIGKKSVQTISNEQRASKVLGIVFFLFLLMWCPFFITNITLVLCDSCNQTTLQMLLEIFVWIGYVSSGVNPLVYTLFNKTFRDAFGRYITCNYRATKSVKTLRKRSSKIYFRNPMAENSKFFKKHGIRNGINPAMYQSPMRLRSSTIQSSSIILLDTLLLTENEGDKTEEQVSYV
# UniProt P47898, whole entry, looked up: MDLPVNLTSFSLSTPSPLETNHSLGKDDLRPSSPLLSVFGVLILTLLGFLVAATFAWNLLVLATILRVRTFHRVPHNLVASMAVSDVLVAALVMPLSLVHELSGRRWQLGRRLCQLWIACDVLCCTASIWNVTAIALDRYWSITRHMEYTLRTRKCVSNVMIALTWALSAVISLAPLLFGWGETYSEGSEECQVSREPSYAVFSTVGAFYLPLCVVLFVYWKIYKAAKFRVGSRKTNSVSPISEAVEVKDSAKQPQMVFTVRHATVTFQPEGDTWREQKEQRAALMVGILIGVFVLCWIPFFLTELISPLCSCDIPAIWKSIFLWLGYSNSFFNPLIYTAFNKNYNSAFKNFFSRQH
# UniProt P21728, whole entry, looked up: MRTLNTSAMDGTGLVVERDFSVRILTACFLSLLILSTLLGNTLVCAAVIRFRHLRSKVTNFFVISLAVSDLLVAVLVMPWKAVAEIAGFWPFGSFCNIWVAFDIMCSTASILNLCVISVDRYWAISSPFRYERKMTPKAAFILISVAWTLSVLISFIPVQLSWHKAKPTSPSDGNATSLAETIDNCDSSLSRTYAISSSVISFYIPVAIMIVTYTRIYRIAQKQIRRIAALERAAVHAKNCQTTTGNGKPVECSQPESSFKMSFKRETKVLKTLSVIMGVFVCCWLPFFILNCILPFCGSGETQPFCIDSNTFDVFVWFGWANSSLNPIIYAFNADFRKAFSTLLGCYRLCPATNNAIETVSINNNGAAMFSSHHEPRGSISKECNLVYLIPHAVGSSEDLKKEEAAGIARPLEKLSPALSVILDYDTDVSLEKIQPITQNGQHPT
# UniProt P41143, whole entry, looked up: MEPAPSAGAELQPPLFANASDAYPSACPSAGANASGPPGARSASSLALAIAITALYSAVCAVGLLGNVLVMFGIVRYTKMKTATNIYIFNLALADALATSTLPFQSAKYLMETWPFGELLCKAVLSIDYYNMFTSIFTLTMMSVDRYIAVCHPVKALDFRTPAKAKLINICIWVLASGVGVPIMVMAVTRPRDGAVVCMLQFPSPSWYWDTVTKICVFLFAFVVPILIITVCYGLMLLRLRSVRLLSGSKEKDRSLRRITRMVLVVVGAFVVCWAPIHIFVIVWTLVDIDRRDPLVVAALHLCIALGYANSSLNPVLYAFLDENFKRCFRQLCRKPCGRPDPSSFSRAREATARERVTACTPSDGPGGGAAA
# UniProt P32245, whole entry, looked up: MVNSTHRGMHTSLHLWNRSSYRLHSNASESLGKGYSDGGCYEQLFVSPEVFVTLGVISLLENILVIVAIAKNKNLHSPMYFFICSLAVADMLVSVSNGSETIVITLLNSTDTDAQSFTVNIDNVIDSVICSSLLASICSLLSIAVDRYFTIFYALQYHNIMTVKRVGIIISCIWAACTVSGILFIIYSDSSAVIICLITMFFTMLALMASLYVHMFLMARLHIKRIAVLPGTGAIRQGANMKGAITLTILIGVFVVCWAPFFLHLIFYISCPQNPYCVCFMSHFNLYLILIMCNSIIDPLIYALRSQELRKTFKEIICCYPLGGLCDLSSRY
# UniProt P11229: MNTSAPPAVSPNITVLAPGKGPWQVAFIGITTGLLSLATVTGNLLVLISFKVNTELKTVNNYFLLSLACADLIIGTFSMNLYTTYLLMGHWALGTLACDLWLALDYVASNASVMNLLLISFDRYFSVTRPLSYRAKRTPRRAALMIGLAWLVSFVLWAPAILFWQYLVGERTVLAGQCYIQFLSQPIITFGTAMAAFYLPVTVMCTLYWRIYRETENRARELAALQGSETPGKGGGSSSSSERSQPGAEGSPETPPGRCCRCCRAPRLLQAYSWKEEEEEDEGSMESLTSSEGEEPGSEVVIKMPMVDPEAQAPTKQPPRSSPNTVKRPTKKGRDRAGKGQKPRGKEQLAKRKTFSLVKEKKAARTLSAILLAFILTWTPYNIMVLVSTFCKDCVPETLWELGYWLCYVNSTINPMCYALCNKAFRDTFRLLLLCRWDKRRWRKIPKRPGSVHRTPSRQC
# UniProt P08172, whole entry, looked up: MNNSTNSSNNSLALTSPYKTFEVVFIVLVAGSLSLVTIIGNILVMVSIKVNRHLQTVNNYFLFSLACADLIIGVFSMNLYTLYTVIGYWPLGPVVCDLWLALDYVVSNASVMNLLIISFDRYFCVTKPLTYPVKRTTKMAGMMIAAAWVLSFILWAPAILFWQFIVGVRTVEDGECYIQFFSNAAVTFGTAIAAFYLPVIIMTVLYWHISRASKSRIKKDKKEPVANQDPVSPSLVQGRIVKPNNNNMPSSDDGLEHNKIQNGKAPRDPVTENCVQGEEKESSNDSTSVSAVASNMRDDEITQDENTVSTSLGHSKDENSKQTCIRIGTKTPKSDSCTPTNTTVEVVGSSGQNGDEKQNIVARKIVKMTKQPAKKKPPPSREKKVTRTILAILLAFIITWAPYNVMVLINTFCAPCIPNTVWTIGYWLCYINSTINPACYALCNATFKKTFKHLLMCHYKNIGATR
# UniProt P20309, whole entry, looked up: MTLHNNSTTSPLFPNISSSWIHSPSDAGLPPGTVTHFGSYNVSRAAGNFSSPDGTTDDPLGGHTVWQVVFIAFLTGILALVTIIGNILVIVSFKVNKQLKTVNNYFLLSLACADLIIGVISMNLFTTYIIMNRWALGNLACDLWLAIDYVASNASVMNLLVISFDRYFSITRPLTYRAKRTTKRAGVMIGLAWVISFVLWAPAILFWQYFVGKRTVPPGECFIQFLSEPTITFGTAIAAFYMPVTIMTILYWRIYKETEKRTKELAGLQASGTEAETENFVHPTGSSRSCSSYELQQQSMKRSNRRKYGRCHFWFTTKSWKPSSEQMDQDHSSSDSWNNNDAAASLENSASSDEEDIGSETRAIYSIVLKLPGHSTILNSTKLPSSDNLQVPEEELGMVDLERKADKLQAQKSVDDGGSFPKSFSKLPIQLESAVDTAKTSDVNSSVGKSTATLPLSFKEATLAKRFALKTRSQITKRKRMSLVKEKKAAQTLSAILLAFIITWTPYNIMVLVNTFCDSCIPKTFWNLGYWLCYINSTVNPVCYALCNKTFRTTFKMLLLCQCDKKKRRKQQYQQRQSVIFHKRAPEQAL
# UniProt P25929, whole entry, looked up: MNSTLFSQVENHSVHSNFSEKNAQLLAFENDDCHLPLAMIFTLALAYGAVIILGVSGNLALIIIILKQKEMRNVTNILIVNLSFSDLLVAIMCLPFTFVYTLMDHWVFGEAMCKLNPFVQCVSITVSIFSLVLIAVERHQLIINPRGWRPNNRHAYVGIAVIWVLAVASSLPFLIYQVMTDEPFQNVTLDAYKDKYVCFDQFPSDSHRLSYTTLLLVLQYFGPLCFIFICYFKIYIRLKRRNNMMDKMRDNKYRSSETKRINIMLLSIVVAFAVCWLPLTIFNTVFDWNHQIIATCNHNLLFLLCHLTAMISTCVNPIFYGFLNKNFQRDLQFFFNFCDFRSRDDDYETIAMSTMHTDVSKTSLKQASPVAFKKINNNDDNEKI
# UniProt P49146, whole entry, looked up: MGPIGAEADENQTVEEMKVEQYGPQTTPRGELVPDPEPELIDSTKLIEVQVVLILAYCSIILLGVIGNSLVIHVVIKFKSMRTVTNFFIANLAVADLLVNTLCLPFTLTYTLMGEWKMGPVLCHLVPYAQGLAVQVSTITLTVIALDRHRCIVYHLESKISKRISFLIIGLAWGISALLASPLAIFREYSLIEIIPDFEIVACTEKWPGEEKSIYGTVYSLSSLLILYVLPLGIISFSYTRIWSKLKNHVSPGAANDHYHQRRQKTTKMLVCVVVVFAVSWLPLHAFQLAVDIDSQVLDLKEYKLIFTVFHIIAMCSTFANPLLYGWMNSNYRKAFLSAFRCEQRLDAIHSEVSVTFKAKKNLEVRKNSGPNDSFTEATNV
# UniProt P30989, whole entry, looked up: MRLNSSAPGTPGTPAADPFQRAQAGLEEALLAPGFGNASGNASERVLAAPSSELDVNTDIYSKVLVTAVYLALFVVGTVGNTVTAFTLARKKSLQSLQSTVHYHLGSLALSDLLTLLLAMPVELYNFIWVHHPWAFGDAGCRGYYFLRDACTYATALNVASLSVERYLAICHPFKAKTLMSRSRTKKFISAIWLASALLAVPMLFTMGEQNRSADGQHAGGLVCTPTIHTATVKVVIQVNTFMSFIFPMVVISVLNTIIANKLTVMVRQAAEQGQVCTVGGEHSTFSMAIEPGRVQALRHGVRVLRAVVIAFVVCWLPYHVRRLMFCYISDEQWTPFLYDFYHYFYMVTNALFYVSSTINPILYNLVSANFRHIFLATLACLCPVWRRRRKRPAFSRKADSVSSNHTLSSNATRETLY
# UniProt P37288, whole entry, looked up: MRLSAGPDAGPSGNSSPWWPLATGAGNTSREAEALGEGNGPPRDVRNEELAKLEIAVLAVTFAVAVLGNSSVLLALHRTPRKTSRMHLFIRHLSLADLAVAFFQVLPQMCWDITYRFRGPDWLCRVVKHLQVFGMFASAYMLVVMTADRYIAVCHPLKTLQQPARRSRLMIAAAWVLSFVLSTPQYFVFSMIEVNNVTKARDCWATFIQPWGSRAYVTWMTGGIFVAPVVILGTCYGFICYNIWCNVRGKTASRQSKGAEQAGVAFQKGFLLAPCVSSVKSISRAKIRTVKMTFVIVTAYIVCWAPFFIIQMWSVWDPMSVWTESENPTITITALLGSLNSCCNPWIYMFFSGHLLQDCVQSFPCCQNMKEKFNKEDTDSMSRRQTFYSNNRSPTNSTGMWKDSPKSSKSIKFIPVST
# Activity calls are given as the source filed them.
# How the values were obtained:
# Assay in all cases: PubChem AID 652083
# [1] = molecular target: 5-hydroxytryptamine receptor 1A (Homo sapiens) (UniProt P08908); settings: CEREP radioligand binding panel, % inhibition at 10 uM, Serotonin 5-HT1a, stronger effect = higher value
# [2] = molecular target: 5-hydroxytryptamine receptor 2B (Homo sapiens) (UniProt P41595); settings: CEREP radioligand binding panel, % inhibition at 10 uM, Serotonin 5-HT2B, stronger effect = higher value
# [3] = molecular target: 5-hydroxytryptamine receptor 5A (Homo sapiens) (UniProt P47898); settings: CEREP radioligand binding panel, % inhibition at 10 uM, Serotonin 5-HT5A, stronger effect = higher value
# Adenosine A1 = settings: CEREP radioligand binding panel, % inhibition at 10 uM, stronger effect = higher value
# Adenosine A2A = settings: CEREP radioligand binding panel, % inhibition at 10 uM, stronger effect = higher value
# Adenosine A3 = settings: CEREP radioligand binding panel, % inhibition at 10 uM, stronger effect = higher value
# Adrenergic beta 1 = settings: CEREP radioligand binding panel, % inhibition at 10 uM, stronger effect = higher value
# Angiotensin receptor 1 = settings: CEREP radioligand binding panel, % inhibition at 10 uM, stronger effect = higher value
# [4] = molecular target: Beta-2 adrenergic receptor (Homo sapiens) (UniProt P07550); settings: CEREP radioligand binding panel, % inhibition at 10 uM, Adrenergic beta 2, stronger effect = higher value
# Bradykinin receptor 2 = settings: CEREP radioligand binding panel, % inhibition at 10 uM, stronger effect = higher value
# CCR1 = settings: CEREP radioligand binding panel, % inhibition at 10 uM, stronger effect = higher value
# CXCR2 (IL-8B) = settings: CEREP radioligand binding panel, % inhibition at 10 uM, stronger effect = higher value
# [5] = tested on: Ca2+ channel (L, verapamil site) (phenylalkylamine); settings: CEREP radioligand binding panel, % inhibition at 10 uM, stronger effect = higher value
# Cannabinoid CB1 = settings: CEREP radioligand binding panel, % inhibition at 10 uM, stronger effect = higher value
# [6] = tested on: Cholecystokinin A receptor; settings: CEREP radioligand binding panel, % inhibition at 10 uM, stronger effect = higher value
# [7] = molecular target: D(1A) dopamine receptor (Homo sapiens) (UniProt P21728); settings: CEREP radioligand binding panel, % inhibition at 10 uM, Dopamine D1, stronger effect = higher value
# [8] = molecular target: Delta-type opioid receptor (Homo sapiens) (UniProt P41143); settings: CEREP radioligand binding panel, % inhibition at 10 uM, delta 2 (DOP), stronger effect = higher value
# Dopamine D2S = settings: CEREP radioligand binding panel, % inhibition at 10 uM, stronger effect = higher value
# Endothelin receptor A = settings: CEREP radioligand binding panel, % inhibition at 10 uM, stronger effect = higher value
# Galanin receptor 2 = settings: CEREP radioligand binding panel, % inhibition at 10 uM, stronger effect = higher value
# Histamine H1 = settings: CEREP radioligand binding panel, % inhibition at 10 uM, stronger effect = higher value
# Histamine H2 = settings: CEREP radioligand binding panel, % inhibition at 10 uM, stronger effect = higher value
# [9] = molecular target: Melanocortin receptor 4 (Homo sapiens) (UniProt P32245); settings: CEREP radioligand binding panel, % inhibition at 10 uM, Melanocortin receptor MC4, stronger effect = higher value
# Melatonin receptor MT1 = settings: CEREP radioligand binding panel, % inhibition at 10 uM, stronger effect = higher value
# [10] = molecular target: Muscarinic acetylcholine receptor M1 (Homo sapiens) (UniProt P11229); settings: CEREP radioligand binding panel, % inhibition at 10 uM, stronger effect = higher value
# [11] = molecular target: Muscarinic acetylcholine receptor M2 (Homo sapiens) (UniProt P08172); settings: CEREP radioligand binding panel, % inhibition at 10 uM, stronger effect = higher value
# [12] = molecular target: Muscarinic acetylcholine receptor M3 (Homo sapiens) (UniProt P20309); settings: CEREP radioligand binding panel, % inhibition at 10 uM, stronger effect = higher value
# NOP (ORL1) = settings: CEREP radioligand binding panel, % inhibition at 10 uM, stronger effect = higher value
# [13] = molecular target: Neuropeptide Y receptor type 1 (Homo sapiens) (UniProt P25929); settings: CEREP radioligand binding panel, % inhibition at 10 uM, Neuropeptide receptor Y1, stronger effect = higher value
# [14] = molecular target: Neuropeptide Y receptor type 2 (Homo sapiens) (UniProt P49146); settings: CEREP radioligand binding panel, % inhibition at 10 uM, Neuropeptide receptor Y2, stronger effect = higher value
# [15] = molecular target: Neurotensin receptor type 1 (Homo sapiens) (UniProt P30989); settings: CEREP radioligand binding panel, % inhibition at 10 uM, Neurotensin receptor 1, stronger effect = higher value
# [16] = tested on: Norepinephrine transporter; settings: CEREP radioligand binding panel, % inhibition at 10 uM, stronger effect = higher value
# Serotonin 5-HT1b = settings: CEREP radioligand binding panel, % inhibition at 10 uM, stronger effect = higher value
# Serotonin 5-HT2A = settings: CEREP radioligand binding panel, % inhibition at 10 uM, stronger effect = higher value
# Serotonin 5-HT3 = settings: CEREP radioligand binding panel, % inhibition at 10 uM, stronger effect = higher value
# Serotonin 5-HT6 = settings: CEREP radioligand binding panel, % inhibition at 10 uM, stronger effect = higher value
# Serotonin 5-HT7 = settings: CEREP radioligand binding panel, % inhibition at 10 uM, stronger effect = higher value
# [17] = tested on: Somatostatin sst (non-selective); settings: CEREP radioligand binding panel, % inhibition at 10 uM, stronger effect = higher value
# Tachykinin receptor NK2 = settings: CEREP radioligand binding panel, % inhibition at 10 uM, stronger effect = higher value
# Tachykinin receptor NK3 = settings: CEREP radioligand binding panel, % inhibition at 10 uM, stronger effect = higher value
# [18] = tested on: Vasoactive intestinal peptide receptor 1; settings: CEREP radioligand binding panel, % inhibition at 10 uM, stronger effect = higher value
# [19] = molecular target: Vasopressin V1a receptor (Homo sapiens) (UniProt P37288); settings: CEREP radioligand binding panel, % inhibition at 10 uM, Arginine vasopressin receptor 1A, stronger effect = higher value
# kappa (KOP) = settings: CEREP radioligand binding panel, % inhibition at 10 uM, stronger effect = higher value
# mu (MOP) = settings: CEREP radioligand binding panel, % inhibition at 10 uM, stronger effect = higher value
smiles,measurement,setting,value
COC(=O)c1cc(Br)cnc1N1CCC(NC2CCCCC2)C(O)C1 (centres undefined),inhibition of specific binding,[1],inactive: 40%
same,inhibition of specific binding,[2],inactive: 24%
same,inhibition of specific binding,[3],inactive: 0%
same,inhibition of specific binding,Adenosine A1,inactive: 3%
same,inhibition of specific binding,Adenosine A2A,inactive: 19%
same,inhibition of specific binding,Adenosine A3,inactive: -1%
same,inhibition of specific binding,Adrenergic beta 1,inactive: -1%
same,inhibition of specific binding,Angiotensin receptor 1,inactive: -2%
same,inhibition of specific binding,[4],inactive: 43%
same,inhibition of specific binding,Bradykinin receptor 2,inactive: -11%
same,inhibition of specific binding,CCR1,inactive: 7%
same,inhibition of specific binding,CXCR2 (IL-8B),inactive: -3%
same,inhibition of specific binding,[5],inactive: 32%
same,inhibition of specific binding,Cannabinoid CB1,inactive: 0%
same,inhibition of specific binding,[6],-54%
same,inhibition of specific binding,[7],inactive: 7%
same,inhibition of specific binding,[8],inactive: 31%
same,inhibition of specific binding,Dopamine D2S,inactive: 38%
same,inhibition of specific binding,Endothelin receptor A,inactive: -7%
same,inhibition of specific binding,Galanin receptor 2,inactive: -13%
same,inhibition of specific binding,Histamine H1,inactive: 3%
same,inhibition of specific binding,Histamine H2,inactive: -7%
same,inhibition of specific binding,[9],inactive: -1%
same,inhibition of specific binding,Melatonin receptor MT1,inactive: -13%
same,inhibition of specific binding,[10],inactive: 5%
same,inhibition of specific binding,[11],inactive: -1%
same,inhibition of specific binding,[12],inactive: 11%
same,inhibition of specific binding,NOP (ORL1),71%
same,inhibition of specific binding,[13],inactive: -11%
same,inhibition of specific binding,[14],inactive: -7%
same,inhibition of specific binding,[15],inactive: -12%
same,inhibition of specific binding,[16],inactive: 16%
same,inhibition of specific binding,Serotonin 5-HT1b,inactive: -11%
same,inhibition of specific binding,Serotonin 5-HT2A,inactive: -4%
same,inhibition of specific binding,Serotonin 5-HT3,inactive: 1%
same,inhibition of specific binding,Serotonin 5-HT6,inactive: 1%
same,inhibition of specific binding,Serotonin 5-HT7,inactive: -7%
same,inhibition of specific binding,[17],inactive: -17%
same,inhibition of specific binding,Tachykinin receptor NK2,inactive: 2%
same,inhibition of specific binding,Tachykinin receptor NK3,inactive: 11%
same,inhibition of specific binding,[18],inactive: 10%
same,inhibition of specific binding,[19],inactive: 1%
same,inhibition of specific binding,kappa (KOP),84%
same,inhibition of specific binding,mu (MOP),97%
